The target of the assay is human GPR119 (Homo sapiens, UniProt Q8TDV5). The experiment in a line: Measurement of GPR119 signaling (cAMP assay) in HEK 293 cells stably transfected with human GPR119. The conditions noted are these: read-out: Human GPR119 EC50; table of Examples 5-56. The source says:
Measurement of GPR119 Signaling (Cyclic AMP (cAMP) Assay)
Human embryonic kidney (HEK) 293 cell lines stably transfected with human GPR119 were maintained in Dulbecco's Modified Eagle Medium (DMEM) containing fetal bovine serum (FBS), penicillin-streptomycin, HEPES buffer (4-(2-hydroxyethyl)-1-piperazineethane sulfonic acid), and hygromycin. For the cAMP assay, the transfected cells were harvested using a non-enzymatic cell dissociation solution (GIBCO 2672), pelleted and resuspended in stimulation buffer (DMEM, 25 mM HEPES, 0.1% bovine serum albumin (BSA), pH 7.4 in the presence of 100 μM phosphodiesterase inhibitors). The adenylate cyclase assay was constructed following the LANCE™ cAMP Kit (Perkin Elmer, AD0264) instructions.
Briefly, cells with Alexa Fluor® 647-anti cAMP antibody were incubated with 10 point series diluted test article in stimulation buffer with a final concentration of 2.5% DMSO for 45 minutes. […] The assay was performed in duplicate in a 384 well plate for duplicate plates and fluorescence was measured at 665 nm. Basal activity was determined using a DMSO control and maximum response was defined as cAMP stimulation produced by an internal agonist control. Standard cAMP concentrations were assayed concurrently for conversion of fluorescence signal to cAMP level. The data was analyzed using 4-parameter curve fit in Microsoft Excel. […]
For orientation: Cyclic AMP is a second messenger, typically raised through Gs and lowered through Gi signalling.

Amino acid sequences for entries named in this document (tags omitted). Residues count along the entry.
UniProt Q8TDV5, 1-308 limits assumed: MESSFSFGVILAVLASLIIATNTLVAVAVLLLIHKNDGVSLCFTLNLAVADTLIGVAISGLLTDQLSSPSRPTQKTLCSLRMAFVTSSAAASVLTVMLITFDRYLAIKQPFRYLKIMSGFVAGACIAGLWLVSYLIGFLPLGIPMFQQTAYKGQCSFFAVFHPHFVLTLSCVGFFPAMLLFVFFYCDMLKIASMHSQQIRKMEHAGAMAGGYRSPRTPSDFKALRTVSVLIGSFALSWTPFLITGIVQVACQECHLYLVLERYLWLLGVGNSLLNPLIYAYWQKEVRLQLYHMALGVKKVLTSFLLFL

On to `CS(=O)(=O)c1ccc(OCC[C@@H]2C[C@@H]2C2CCN(CC(F)(F)C(F)F)CC2)cc1`, for which the EC50 was determined as 45.4 nM.
Next, `CC(F)(F)CN1CCC([C@H]2C[C@H]2CCOc2ccc(C(=O)NC3CC3)c(F)c2)CC1`: 45.1 nM.

As usually defined, the EC50 is the concentration needed to bring the measured effect to its halfway point.

(Values after patent publication US9018200B2, “Substituted piperidinyl compounds useful as GPR119 agonists” (Merck Sharp & Dohme Corp., priority 2011, dated 2015).)
